# How the values were obtained:
# NCI-H1975 = NCI-H1975 cell line xenograft mouse model of NSCLC; set-up: species or system mice (human NSCLC adenocarcinoma cell line); settings: FIG. 3A-3D
# Experimental: (§1) Experiments were performed using NCI-H1975, a NSCLC adenocarcinoma cell line. NCI-H1975 has an L858R mutation that increases EGFR activity.
# After tumor cell inoculation, the animals were checked daily for morbidity and mortality. […] Mortality and observed clinical signs were recorded for individual animals in detail.
# Tumor volumes were measured twice per week in two dimensions using a caliper, and the volume was expressed in mm^3 using the formula: “V=(L×W×W)/2, where V is tumor volume, L is tumor length (the longest tumor dimension) and W is tumor width (the longest tumor dimension perpendicular to L). Dosing as well as tumor and body weight measurements were conducted in a Laminar Flow Cabinet.
# NCI-H1975 cells = NCI-H1975 cells treated in vitro, dose response; assay type: cell-based; settings: FIG. 2
# Experimental: as §1
smiles,measurement,setting,value
COc1cc2ncnc(Nc3ccc(F)c(Cl)c3)c2cc1OCCCN1CCOCC1 [gefitinib],resistance of NCI-H1975 (EGFR T790M) in vivo,NCI-H1975,resistance
same,resistance of NCI-H1975 (EGFR T790M) in vitro,NCI-H1975 cells,resistance

# — patent US20230070988A1, “COMBINATIONS OF EGFR INHIBITORS AND ROR1 INHIBITORS FOR THE TREATMENT OF CANCER” (priority 2020, published 2023)
